According to PMC3897212 (Journal of pharmacokinetics and pharmacodynamics, 2013):

Columns and labels:
[1] = Human PBPK model of lapatinib; settings: human PBPK model parameter
[2] = Mouse PBPK model of lapatinib; settings: parameter estimate (CV%) fitted to 60 mg/kg cohort
[3] = human plasma, fasted, cited from earlier work

Partition coefficient Heart:plasma [1]: 215 Ratio
Partition coefficient Heart:plasma [2]: 215 (22) Ratio
SMILES: CS(=O)(=O)CCNCc1ccc(-c2ccc3ncnc(Nc4ccc(OCc5cccc(F)c5)c(Cl)c4)c3c2)o1 [lapatinib, N-{3-chloro-4-[(3-fluorobenzyl)oxy]phenyl}-6-[5-({[2-(methylsulfonyl)ethyl]amino}methyl)-2-furyl]-4-quinazolinamine]
Observed t1/2 ([3]; 175 mg multiple dose, healthy, geometric mean): 11.1 ^a (7.3–16.8) h
Observed t1/2 ([3]; 1,200 mg multiple dose, cancer, median): 16.9 ^b (15.1–34.3) h
Observed t1/2 ([3]; 1,200 mg single dose, cancer, median): 11.5 ^b (10.1–19.5) h
Observed t1/2 ([3]; 1,800 mg single dose, cancer, median): 15.7 ^b (11.0–133.1) h

Where two headings read alike, the source gives them in different places. Marks after values point to notes of the source that are not given here.
